Target: recombinant human estrone sulfatase (Homo sapiens, UniProt P08842)
Test: Estrone sulfatase (steroid sulfatase) inhibition test (Method B), 4-methylumbelliferyl sulfate substrate
Settings: read-out: Inhibitory Activity against Steroid Sulfatase IC50, 4-methylumbelliferyl sulfate 0.3 mmol/L, pH 7.5, 37° C., 1 hour
Description: Estrone Sulfatase (Steroid Sulfatase) Inhibition Test (Method B)
4-Methylumbelliferyl sulfate (final concentration 0.3 mmol/L), recombinant human estrone sulfatase (7.8 ng/well) and an estra-1,3,5(10)-triene derivative of each test concentration (the estra-1,3,5(10)-triene derivative was dissolved in 0.001 mL of DMSO) were added to a phosphate buffer (pH 7.5, final volume 0.1 mL) containing 0.28 mol/L of sucrose and 0.04 mol/L of nicotinamide, and the mixture was subjected to enzymatic reaction at 37° C. for 1 hour. The recombinant human estrone sulfatase used herein was prepared from CHO (Chinese hamster ovary) cells, which were transfected with a human estrone sulfatase gene, after partial purification. After the enzymatic reaction, an aqueous solution of 2 mol/L glycine-sodium hydroxide (pH 10.3, 0.13 mL) was added thereto followed by stirring. Using a fluorescent plate reader (Cyto Fluor II), the fluorescent intensity of 4-methylumbelliferone formed in the system was measured. The measurement was carried out at one time by duplication, and the assay fluctuation was 10% or less. The enzymatic reaction in the absence of the test compound was also carried out simultaneously. The inhibitory activity against estrone sulfatase of the test compound of each concentration was calculated according to the equation shown below. […]

Amino acid sequences for entries named in this document (tags omitted). Residues count along the entry.
UniProt P08842, 22-583 limits assumed: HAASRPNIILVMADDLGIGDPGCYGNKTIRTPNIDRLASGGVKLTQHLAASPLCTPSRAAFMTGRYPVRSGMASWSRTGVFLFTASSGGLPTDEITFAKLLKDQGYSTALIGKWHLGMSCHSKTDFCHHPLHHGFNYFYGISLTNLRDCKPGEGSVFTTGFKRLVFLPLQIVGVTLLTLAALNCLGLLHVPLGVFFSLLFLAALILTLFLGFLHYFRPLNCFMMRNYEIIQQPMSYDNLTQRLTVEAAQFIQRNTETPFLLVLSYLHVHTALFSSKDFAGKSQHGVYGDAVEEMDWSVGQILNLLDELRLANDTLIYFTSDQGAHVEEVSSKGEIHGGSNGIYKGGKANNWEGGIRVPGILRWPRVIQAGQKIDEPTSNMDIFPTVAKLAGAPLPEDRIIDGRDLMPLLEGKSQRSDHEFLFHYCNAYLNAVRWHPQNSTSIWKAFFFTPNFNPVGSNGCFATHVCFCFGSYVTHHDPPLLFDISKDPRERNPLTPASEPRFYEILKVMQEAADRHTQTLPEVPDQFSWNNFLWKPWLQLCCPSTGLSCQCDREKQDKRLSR

Work on `CC(C)(O)C1=CCC2C3CCc4cc(OS(N)(=O)=O)ccc4C3CCC12C` (stereo not shown) yielded an IC50 of 13 nM.

Reference: patent US6953785B2, “Estra-1,3,5(10)-triene derivatives” (priority 2000, dated 2005)
